These results are taken from patent US20220024982A1 (Bicycle, published 2022).

In test [1] the target is T1, MT1-MMP Hemopexin domain (PEX) (UniProt P50281 319-511).
T1 construct: domain: Hemopexin domain (PEX); Target of the fluorescence polarisation assays; also called hemopexin of MT1-MMP; MMP14
Nature of the test: FP competition vs tracer 17-69-07-N040. An excerpt: Here, a pre-formed complex of PEX with the fluorescent PEX-binding tracer is titrated with free, non-fluoresceinated bicyclic peptide. Since all 17-69-based peptides are expected to bind at the same site, the titrant will displace the fluorescent tracer from PEX. Dissociation of the complex can be measured quantitatively, and the Kd of the competitor (titrant) to the target protein determined. The advantage of the competition method is that the affinities of non-fluoresceinated bicyclic peptides can be determined accurately and rapidly.
(§1) Subsequently, the non-fluorescent competitor bicyclic peptide (usually just the bicycle core sequence) is titrated, such that it displaces the fluorescent tracer from the target protein. The displacement of the tracer is measured and associated with a drop in fluorescence polarisation. The drop in fluorescence polarisation is proportional to the fraction of target protein bound with the non-fluorescent titrant, and thus is a measure of the affinity of titrant to target protein.
(§2) The raw data is fit to the analytical solution of the cubic equation that describes the equilibria between fluorescent tracer, titrant, and binding protein. The fit requires the value of the affinity of fluorescent tracer to the target protein, which can be determined separately by direct binding FP experiments (see previous section).

Test [2] has as its target T1, MT1-MMP Hemopexin domain (PEX). Nature of the test: FP competition vs tracer 17-88-N006. How it is done: as §1, §2

In test [1], ACLEQFYPCEHPLFSCA (3 Cys linked to TATA scaffold) [17-126-09] yielded a Kd of 165 nM. Same read-out and setting: for ACPGECFYPSNHRLYCA (3 Cys linked to TATA scaffold) [17-129-08] the value was 516 nM. As to ACDEQFYPCHHRLYSCA (3 Cys linked to TATA scaffold) [17-126-07], the Kd in test [1] worked out at 198 nM. In turn, ACPQECFYPPGHPYHCA (3 Cys linked to TATA scaffold) [17-129-06] yielded a Kd in test [1] of 566 nM.

In test [1], ACLEQFYPCGDPRLCA (3 Cys linked to TATA scaffold) [17-126-11] returned a Kd of 971 nM. The same measure, in the same setting: the value for ACEEQFYPCSHPLYTCA (3 Cys linked to TATA scaffold) [17-126-18] was 147 nM. The same measure, in the same setting: the value for ACHPEWVSCEFHCA (3 Cys linked to TATA scaffold) [17-116-01] was 352 nM; that for ADYCWMECFYPPGHPLACA (3 Cys linked to TATA scaffold) [17-129-18-T04] was 172 nM. Still for that read-out and setting: the value for ACPGECFYPPGHPLRCTVL (3 Cys linked to TATA scaffold) [17-129-20-T01] was 213 nM.

The molecule ACFDECQLLFPKTCA (3 Cys linked to TATA scaffold) [17-120-01] yielded a Kd in test [2] of 310 nM.

With SRMCPEECFYPPGHPLACA (3 Cys linked to TATA scaffold) [17-129-17-T01], binding in test [1] was put at a Kd of 418 nM. SRSCPEECFYPPGHPLACA (3 Cys linked to TATA scaffold) [17-129-17-T02]: the Kd in test [1] is 369 nM. On the same count and under the same terms, the value for SQNCFEECFYPPGHPLACA (3 Cys linked to TATA scaffold) [17-129-19-T02] was 458 nM; that for ACPGECFYPPGHRFHCLTE (3 Cys linked to TATA scaffold) [17-129-22-T01] was 53.7 nM; that for RYMTRCPEECFYPPGHPLACA (3 Cys linked to TATA scaffold) [17-129-17-T03] was 312 nM.

Molecule MANCFEECFYPPGHPLACA (3 Cys linked to TATA scaffold) [17-129-19-T01] gave a Kd in test [1] of 754 nM. Still for that read-out and setting: for QESCWMECFYPPGHPLACA (3 Cys linked to TATA scaffold) [17-129-18-T03] the value was 202 nM.

In turn, ACPGECFYPPGHPRECSWL (3 Cys linked to TATA scaffold) [17-129-21-T01] displayed a Kd in test [1] of 111 nM. In turn, ACSSWDKLMCHPYCA (3 Cys linked to TATA scaffold) [17-121-00] yielded a Kd in test [1] of 678 nM. On to QCPGECFYPPGHPLYCNA (3 Cys linked to TATA scaffold) [17-129-14-T01], for which the Kd in test [1] was determined as 246 nM.

As for ACSHECALLFPKTCA (3 Cys linked to TATA scaffold) [17-120-00], the Kd in test [2] was determined as 923 nM. On to ACPGECFYPPGHRLYCYSE (3 Cys linked to TATA scaffold) [17-129-23-T01], for which, in test [1], the affinity, expressed as Kd, was 54.8 nM. NCPGECFYPPNHPFYCNA (3 Cys linked to TATA scaffold) [17-129-15-T01]: binding in test [1] was put at a Kd of 278 nM. Regarding ACPGECFYPPGHPLYCNVI (3 Cys linked to TATA scaffold) [17-129-14-T02], in test [1], the Kd was 318 nM.

With LCPEECFYPPNHPLYCHA (3 Cys linked to TATA scaffold) [17-129-12-T01], the Kd in test [1] was 187 nM. For the molecule DCPGECFYPPNHPLYCRA (3 Cys linked to TATA scaffold) [17-129-16-T01], the Kd in test [1] is 263 nM. ACEEQFYPCGHHLLCA (3 Cys linked to TATA scaffold) [17-126-12] gave a Kd in test [1] of 2900 nM. Same read-out and setting: the value for ACEEQFYPCGHKLSPCA (3 Cys linked to TATA scaffold) [17-126-21] was 131 nM. The same measure, in the same setting: the value for ACPQECFYPSTHPLYCA (3 Cys linked to TATA scaffold) [17-129-07] was 582 nM; that for ACEEEFYPCSHPLNPCA (3 Cys linked to TATA scaffold) [17-126-20] was 246 nM. APPPCVRECALLFPKTCA (3 Cys linked to TATA scaffold) [17-120-09-T01] came in with a Kd in test [2] of 53.8 nM.

With APDPCVRECALLFPKTCA (3 Cys linked to TATA scaffold) [17-120-09-T10], the Kd in test [2] worked out at 38.5 nM. The same measure, in the same setting: for APHPCVRECALLFPKTCA (3 Cys linked to TATA scaffold) [17-120-09-T13] the value was 69.3 nM; for APAPCVRECALLFPKTCA (3 Cys linked to TATA scaffold) [17-120-09-T12], 62.2 nM; for SPPPCARECALLFPKTCA (3 Cys linked to TATA scaffold) [17-120-15-T02], 76.7 nM. Same read-out and setting: the value for HPPPCVRECALLFPKTCA (3 Cys linked to TATA scaffold) [17-120-09-T08] was 37.5 nM. Take APPPCVVECALLFPKTCA (3 Cys linked to TATA scaffold) [17-120-34-T01]: binding in test [2] was characterised by a dissociation constant (Kd) of 59.9 nM. EPPPCVRECALLFPKTCA (3 Cys linked to TATA scaffold) [17-120-09-T07] came in with a Kd in test [2] of 48.1 nM. Still for that read-out and setting: for APPPCVTECALLFPKTCA (3 Cys linked to TATA scaffold) [17-120-31-T03] the value was 41.5 nM; for NPPPCVRECALLFPKTCA (3 Cys linked to TATA scaffold) [17-120-09-T06], 49.8 nM; for SPPPCVGECALLFPKTCA (3 Cys linked to TATA scaffold) [17-120-33-T01], 77.6 nM. The same measure, in the same setting: for APPPCVFECALLFPKTCA (3 Cys linked to TATA scaffold) [17-120-35-T01] the value was 23.3 nM.

As for APLPCVRECALLFPKTCA (3 Cys linked to TATA scaffold) [17-120-09-T11], the Kd in test [2] is 44.2 nM. In test [2], SPPPCVRECALLFPKTCA (3 Cys linked to TATA scaffold) [17-120-09-T05] registered a Kd of 32.3 nM.

In the case of APNPCVRECALLFPKTCA (3 Cys linked to TATA scaffold) [17-120-09-T09], the Kd in test [2] turned out to be 77.2 nM. On the same count and under the same terms, for GPPPCVRECALLFPKTCA (3 Cys linked to TATA scaffold) [17-120-09-T04] the value was 34.1 nM.

Regarding DNMCWMECFYPPGHPLACA (3 Cys linked to TATA scaffold) [17-129-18-T02], the Kd in test [1] worked out at 334 nM. Same read-out and setting: the value for ACEEQFYPCNHPLNVCA (3 Cys linked to TATA scaffold) [17-126-19] was 199 nM. ACEESFYPECDHCA (3 Cys linked to TATA scaffold) [17-108-02] came in with a Kd in test [2] of 4490 nM. Regarding ACPGECFYPPGHHLSCA (3 Cys linked to TATA scaffold) [17-129-10], in test [1], the Kd is 781 nM. Still for that read-out and setting: the value for ACPGECFYPPGHHLGCA (3 Cys linked to TATA scaffold) [17-129-11] was 912 nM. As for ACLDECKLLFPKTCA (3 Cys linked to TATA scaffold) [17-120-02], the Kd in test [2] was 190 nM. Turning to TCPGECFYPPDHPLYCNA (3 Cys linked to TATA scaffold) [17-129-13-T01], the Kd in test [1] is 248 nM.

In test [1], REECWMECFYPPGHPLACA (3 Cys linked to TATA scaffold) [17-129-18-T01] registered a Kd of 138 nM. As for ACQEQFYPCNHPLSPCA (3 Cys linked to TATA scaffold) [17-126-23], the Kd in test [1] is 409 nM.

Regarding ACVEQFYPCGHRHYICA (3 Cys linked to TATA scaffold) [17-126-10], the Kd in test [1] turned out to be 737 nM. As for ACPEQFYPCDHRLYICA (3 Cys linked to TATA scaffold) [17-126-22], in test [1], the dissociation constant (Kd) is 295 nM. On the same count and under the same terms, the value for ACEEEFYPCGHPMHPCA (3 Cys linked to TATA scaffold) [17-126-06] was 675 nM; that for ACEEEFYPCGHPFHPCA (3 Cys linked to TATA scaffold) [17-126-08] was 711 nM.

On to ACPDECFYPPEHPLACA (3 Cys linked to TATA scaffold) [17-129-09], for which, in test [1], the Kd amounted to 1090 nM.

Usually Kd stands for the constant that tells how readily two partners part at equilibrium. A low value points to a tighter complex.
